These are literature values, as cited in patent US7109331B2, “5H-pyrrolo[3,2-d]pyrimidine nucleoside metabolism inhibitors” (Industrial Research Limited, priority 2000, dated 2006).

This data set has as its system contact sensitivity ear swelling. To be noted: mice.

`Nc1nc2c(Cc3cccnc3)c[nH]c2c(=O)[nH]1` [9-(3-pyridylmethyl)-9-deazaguanine]: the “oral dose required for activity” value is listed as 50 mg/kg.
